{
  "source": "patent US9833451B2",
  "about": "(priority 2007, dated 2017)",
  "key": {"[1]": {"system": "migraine pain in subjects", "assay": "Relief from migraine pain after inhaled DHE (FIG. 1)", "format": "in vivo, human", "settings": "0.88 mg and 0.44 mg DHE inhaled"}, "[2]": {"settings": "cited from earlier work"}},
  "note": "Where a name gives a salt, the structure may show the parent alone. Read-outs that look alike come from different tables or passages of the source.",
  "data": [
    {"smiles": "CN1C[C@H](C(=O)N[C@]2(C)O[C@@]3(O)[C@@H]4CCCN4C(=O)[C@H](Cc4ccccc4)N3C2=O)C[C@@H]2c3cccc4[nH]cc(c34)C[C@H]21", "note": "[DHE, dihydroergotamine mesylate]", "values": [
      {"measurement": "time to therapeutic efficacy", "setting": "[1]", "value": "≤ 30", "unit": "min"},
      {"measurement": "onset of therapeutic efficacy", "setting": "[2]; intranasal", "value": 45, "unit": "min"},
      {"measurement": "onset of therapeutic efficacy", "setting": "[2]; oral or sublingual delivery", "value": 120, "unit": "min"}
    ]}
  ]
}
